Values quoted from earlier work in US4952693A, “Oxazolo-pyrimidine derivatives” (Warner-Lambert Company, priority 1987, dated 1990).

System: PNP
Settings: literature report

Nc1nc2nc(N)[nH]c2c(=O)[nH]1 [8-Aminoguanine]
PNP-activity (in words): PNP-activity
